“And” between values parts separate entries of the source, which are not always exact repeats. Equal entries are not always repeated.

The assay deals with lipase. In words: Lipase/lipolysis assay (EnzChek Lipase Substrate, quenched BODIPY-fatty acid conjugate) on stored human milk.
The mark [1] stands for this setting: Biolog PM4 compound added to fresh human milk, stored 1 week at −20° C., RFU <400 = hit.
Where [2] appears, read: Food Additive Library compound added to fresh human milk, stored 1 week at −20° C., thawed at room temperature, RFU of <400 considered a hit.
[3] abbreviates: compound added to fresh human milk, stored 1 week at −20° C., thawed at room temperature, RFU <400 considered a hit.
The mark [4] stands for this setting: Food-Sourced Compound Library compound added to fresh human milk, stored 1 week at −20° C., thawed at room temperature, RFU <400 considered a hit.
Where [5] appears, read: Biolog PM5 compound added to fresh human milk, stored 1 week at −20° C., RFU <400 = hit.
The mark [6] stands for this setting: Biolog PM1 compound added to fresh human milk, stored 1 week at −20° C., RFU <400 = hit.

With `CSCC[C@H](NC(=O)CN)C(=O)O` [Glycyl-L-Methionine], the “Lipase (RFU)” value under setting [1] is 941.7214 RFU.
Consider `CCCCCCCCCCCC(=O)OC` [Methyl laurate], for which the “Lipase (RFU)” value under setting [2] is 1102.654 RFU and the “Lipase (RFU)” value under setting [3] is 915.378 RFU.
As for `COC(=O)/C=C/c1ccc(O)cc1` [Methyl p-coumarate], the “Lipase (RFU)” value under setting [3] worked out at 959.8824 RFU.
`CCCCC/C=C/C=C/C=O` [trans, trans-2,4-Decadienal]: the “Lipase (RFU)” value is listed as 1141.703 RFU under setting [2] and 635.5627 RFU under setting [3].
Consider `CC(=O)OC[C@H]1O[C@@](COC(C)=O)(O[C@H]2O[C@H](COC(C)=O)[C@@H](OC(C)=O)[C@H](OC(C)=O)[C@H]2OC(C)=O)[C@@H](OC(C)=O)[C@@H]1OC(C)=O` [Sucrose octaacetate], for which the “Lipase (RFU)” value under setting [2] is given as 903.444 RFU.
Same read-out and setting: under `O=C(O)C1CCCCC1` [Cyclohexanecarboxylic acid] stands 985.8444 RFU.
`COc1cc2c(=O)c(-c3ccc(O)cc3)coc2cc1O` [Glycitein]: the “Lipase (RFU)” value under setting [3] is recorded as 869.1073 RFU.
Turning to `O=C(O)C(=O)O` [Oxalic Acid], the “Lipase (RFU)” value runs as follows: (Biolog PM2a compound added to fresh human milk, stored 1 week at −20° C., RFU <400 = hit) 973.8306 RFU; under setting [3], 839.6453 RFU.
Take `CCCCC/C=C\C/C=C\CCCCCCCC(=O)OCC` [Ethyl linoleate]: the “Lipase (RFU)” value under setting [3] came out at 1142.329 RFU.
For the compound `C[C@H](CCC(=O)O)[C@H]1CC[C@H]2[C@@H]3[C@H](O)C[C@@H]4C[C@H](O)CC[C@]4(C)[C@H]3CC[C@]12C` [Chenodeoxycholic Acid], the “Lipase (RFU)” value under setting [4] worked out at 1038.598 RFU.
With `CC(O)CC(=O)O.[Na]` (centres unmarked) [3-Hydroxybutyric acid (sodium)], the “Lipase (RFU)” value under setting [4] stood at 894.0672 RFU.
On to `O=C(O)CC(O)(CC(=O)O)C(=O)O` [Citric acid (trisodium)], for which the “Lipase (RFU)” value under setting [2] was determined as 1189.911 RFU.
As for `C=CCCCCCCCCC(=O)O` [10-Undecenoic acid], the “Lipase (RFU)” value was found to be 1048.253 RFU under setting [2] and 1056.535 RFU under setting [4].
Take `Cc1ncc(C[n+]2csc(CCO)c2C)c(N)n1` [Thiamine]: under setting [5], the “Lipase (RFU)” value was 935.4969 RFU and 938.7666 RFU.
Take `C[C@H]1CC[C@@]2(OC1)O[C@H]1C[C@H]3[C@@H]4CC[C@@H]5C[C@@H](O)CC[C@]5(C)[C@H]4CC[C@]3(C)[C@H]1[C@@H]2C` [Sarsasapogenin]: the “Lipase (RFU)” value under setting [3] amounted to 952.9686 RFU.
With `COc1ccc(CCC(=O)c2c(O)cc(O[C@@H]3O[C@H](CO)[C@@H](O)[C@H](O)[C@H]3O[C@@H]3O[C@@H](C)[C@H](O)[C@@H](O)[C@H]3O)cc2O)cc1O` [Neohesperidin dihydrochalcone], the “Lipase (RFU)” value under setting [2] was found to be 917.1936 RFU and the “Lipase (RFU)” value under setting [3] came to 792.3552 RFU.
Take `COc1cc(CNC(=O)CCCC/C=C/C(C)C)ccc1O` [Capsaicin]: the “Lipase (RFU)” value under setting [2] was 1060.242 RFU.
In the case of `O=C(O)/C=C/C(=O)O` [Fumaric Acid], the “Lipase (RFU)” value reads like this: under setting [6], 1056.645 RFU; under setting [2], 762.3929 RFU; under setting [3], 918.3772 RFU.
Take `Cc1cc(C(C)(C)C)c(O)c(C(C)(C)C)c1` [Butylated hydroxytoluene]: the “Lipase (RFU)” value under setting [2] was found to be 1194.072 RFU.
As for `C[C@@H]1O[C@@H](O[C@H]2[C@H](Oc3cc(O)c4c(=O)cc(-c5ccc(O)c(O)c5)oc4c3)O[C@H](CO)[C@@H](O)[C@@H]2O)[C@H](O)[C@H](O)[C@H]1O` [Lonicerin], under setting [3], the “Lipase (RFU)” value turned out to be 804.2399 RFU.
As for `CC(/C=C/C=C(\C)C(=O)O[C@@H]1O[C@H](CO[C@@H]2O[C@H](CO)[C@@H](O)[C@H](O)[C@H]2O)[C@@H](O)[C@H](O)[C@H]1O)=C\C=C\C=C(C)\C=C\C=C(/C)C(=O)O[C@@H]1O[C@H](CO[C@@H]2O[C@H](CO)[C@@H](O)[C@H](O)[C@H]2O)[C@@H](O)[C@H](O)[C@H]1O` [Crocin], under setting [4], the “Lipase (RFU)” value was found to be 1338.047 RFU.
For the compound `C[C@H]1O[C@@H](n2cnc3c(N)ncnc32)[C@H](O)[C@@H]1O` [5′-Deoxyadenosine], under setting [4], the “Lipase (RFU)” value stood at 899.0073 RFU.
Consider `O=C(O)CCC(=O)O` [Succinic Acid], for which the “Lipase (RFU)” value was 1079.729 RFU under setting [6] and 982.6487 RFU under setting [2].
As to `O=c1c(O)c(-c2ccc(O)c(O)c2)oc2cc(O)ccc12` [Fisetin], the “Lipase (RFU)” value under setting [3] is recorded as 1046.219 RFU.
`Cc1c[nH]c(=O)[nH]c1=O` [Thymine]: the “Lipase (RFU)” value under setting [5] amounted to 947.068 RFU.
Regarding `N=C(N)NC(CC(=O)O)C(=O)O` (centres unmarked) [Guanidinosuccinic acid], the “Lipase (RFU)” value under setting [3] is 698.8303 RFU.
As to `CC12CCC(CC1=O)C2(C)C` (stereo not drawn) [(+)-Camphor], the “Lipase (RFU)” value under setting [2] is on record as 881.1343 RFU.
For `O=c1c(O)c(-c2ccc(O)c(O)c2)oc2cc(O)cc(O)c12` [Quercetin], the “Lipase (RFU)” value (Table 7, single compound 20 mg/mL, human milk stored 1 week at −20° C., inhibited if RFU <400) is listed as 803.814 RFU.
In the case of `OC[C@@H](O)[C@@H](O)[C@H](O)[C@H](O)CO` [D-Mannitol], the “Lipase (RFU)” value under setting [6] is 1077.776 RFU, the “Lipase (RFU)” value under setting [2] is recorded as 962.9718 RFU and the “Lipase (RFU)” value under setting [4] worked out at 894.6274 RFU.
Turning to Rebaudioside C, under setting [2], the “Lipase (RFU)” value is recorded as 1048.24 RFU.
In the case of `CC(=O)N[C@@H](CS)C(=O)O` [Acetylcysteine], the “Lipase (RFU)” value under setting [3] turned out to be 763.6539 RFU.
On to `CCOC(=O)c1cc(O)c(O)c(O)c1` [Ethyl gallate], for which the “Lipase (RFU)” value under setting [3] worked out at 1017.803 RFU.
As for `Nc1ccn([C@@H]2O[C@H](CO)[C@@H](O)[C@H]2OP(=O)(O)O)c(=O)n1` [Cytidine-2′-monophosphate], the “Lipase (RFU)” value under setting [1] is 1065.318 RFU.
Regarding `CCCCC/C=C/C(=O)O` [(E)-Oct-2-enoic acid], the “Lipase (RFU)” value is given as 890.5954 RFU under setting [2] and 900.5366 RFU under setting [3].
For `CC(C)C(O)C(=O)O` (centres unmarked) [2-Hydroxy-3-methylbutanoic acid], the “Lipase (RFU)” value under setting [4] is recorded as 798.7467 RFU.
`O=c1c(-c2ccc(O)cc2)coc2cc(O)cc(O)c12` [Genistein]: the “Lipase (RFU)” value under setting [3] was 921.4345 RFU.
The same measure, in the same setting: next, `CCCCCCCCCCCCCC(=O)O[C@H]1CC[C@@]2(C)C(=CC[C@H]3[C@@H]4CC[C@H]([C@H](C)CCCC(C)C)[C@@]4(C)CC[C@@H]32)C1` [Cholesterol myristate]: 751.9361 RFU; `O=C(O)C(O)c1ccccc1` (centres unmarked) [Mandelic acid]: 715.2042 RFU.
For `CCCCCCCCCCCCCCCC(=O)OC` [Methyl palmitate], under setting [4], the “Lipase (RFU)” value is recorded as 907.9799 RFU.
With `Nc1ncnc2c1ncn2[C@@H]1O[C@H](CO)[C@@H](O)[C@H]1O` [AdenosineAcid], under setting [6], the “Lipase (RFU)” value amounted to 1022.153 RFU.
Take `CCCCCCCCCCCCCCCCCCCCCCC(=O)O` [Tricosanoic acid]: the “Lipase (RFU)” value under setting [4] is 1039.233 RFU.
For `N[C@@H](CCSSCC[C@H](N)C(=O)O)C(=O)O` (racemic) [DL-Homocystine], the “Lipase (RFU)” value under setting [3] was 704.0257 RFU.
Same read-out and setting: next, `COc1cc(C[C@H]2COC(=O)[C@@H]2Cc2ccc(O)c(OC)c2)ccc1O` [Matairesinol]: 851.161 RFU.
As to `CCCCCCCCCCCCCCCCCCO` [Compound 1-Hydroxyoctadecane, 1-Hydroxyoctadecane], the “Lipase (RFU)” value under setting [2] came to 866.8281 RFU.
In the case of `OCCc1ccccc1` [Compound 2-Phenylethanol, 2-Phenylethanol], the “Lipase (RFU)” value under setting [3] was determined as 949.3028 RFU.
Consider `CCOC(=O)OC(=O)OCC` [Diethyl pyrocarbonate], for which the “Lipase (RFU)” value under setting [2] was found to be 886.6617 RFU.
`O=C(O)CC[C@@H](O)C(=O)O.[Na].[Na]` [D-α-Hydroxyglutaric acid (disodium)]: the “Lipase (RFU)” value under setting [3] is on record as 895.488 RFU.
`O=C(O)[C@@H](O)[C@@H](O)[C@H](O)[C@@H](O)C(=O)O` [D-Saccharic Acid]: the “Lipase (RFU)” value under setting [6] was determined as 1181.227 RFU.
For the compound `COc1ccc(C[C@H]2COC(=O)[C@@H]2Cc2ccc(O[C@@H]3O[C@H](CO)[C@@H](O)[C@H](O)[C@H]3O)c(OC)c2)cc1OC` [Arctiin], the “Lipase (RFU)” value under setting [3] worked out at 645.9765 RFU.
On to `CNc1ccccc1C(=O)OC` [Methyl N-methylanthranilate], for which the “Lipase (RFU)” value under setting [2] turned out to be 860.2221 RFU.
In the case of `COc1ccc(-c2cc(=O)c3c(O)cc(O[C@@H]4O[C@H](CO)[C@@H](O)[C@H](O)[C@H]4O)cc3o2)cc1O` [Diosmetin-7-O-β-D-glucopyranoside], the “Lipase (RFU)” value under setting [3] is 1122.568 RFU.
On the same count and under the same terms, next, `CCCCCCCC/C=C\CCCCCCCCCCCC(=O)O` [Erucic acid]: 1149.145 RFU.
For `CCCCCC(C)O` (centres unmarked) [Compound 2-Heptanol, 2-Heptanol], the “Lipase (RFU)” value under setting [2] came out at 1139.117 RFU.
Consider `O=c1cc(-c2ccc(O)cc2)oc2cc(O[C@@H]3O[C@H](CO)[C@@H](O)[C@H](O)[C@H]3O)cc(O)c12` [Apigenin 7-glucoside], for which the “Lipase (RFU)” value under setting [3] is listed as 1209.986 RFU.
For the compound `O=C(CO)CO` [1,3-Dihydroxyacetone], the “Lipase (RFU)” value under setting [2] is on record as 952.8488 RFU.
For the compound `COc1ccc(-c2cc(=O)c3c(O)c(OC)c(O)cc3o2)cc1` [Pectolinarigenin], the “Lipase (RFU)” value under setting [3] was 920.1312 RFU.
Consider `COc1cccc(OC)c1OC` [1,2,3-Trimethoxybenzene], for which, under setting [3], the “Lipase (RFU)” value amounted to 941.4367 RFU.
For the compound `CC(=O)OCC(COC(C)=O)OC(C)=O` [Triacetin], under setting [2], the “Lipase (RFU)” value is 821.4356 RFU.
Consider `C[C@H](CCC(=O)NCC(=O)O)[C@H]1CC[C@H]2[C@@H]3[C@H](O)C[C@@H]4C[C@H](O)CC[C@]4(C)[C@H]3C[C@H](O)[C@]12C` [Glycocholic acid (sodium)], for which the “Lipase (RFU)” value under setting [2] turned out to be 1089.709 RFU and the “Lipase (RFU)” value under setting [3] was 967.7025 RFU.
In the case of `CC1=CC(=O)c2ccccc2C1=O` [Menadione], under setting [5], the “Lipase (RFU)” value turned out to be 774.4043 RFU.
In the case of `CC1=NN(c2ccccc2)C(=O)C1` [Edaravone], the “Lipase (RFU)” value under setting [4] came out at 1086.284 RFU.
As for `Nc1ncnc2nc[nH]c12` [Adenine], under setting [5], the “Lipase (RFU)” value amounted to 1202.436 RFU.
